The text below walks through data of PubChem BioAssay AID777 (Sanford-Burnham Center for Chemical Genomics, 2007).

Amino acid sequences for entries named in this document (tags omitted).
UniProt P11712, whole entry: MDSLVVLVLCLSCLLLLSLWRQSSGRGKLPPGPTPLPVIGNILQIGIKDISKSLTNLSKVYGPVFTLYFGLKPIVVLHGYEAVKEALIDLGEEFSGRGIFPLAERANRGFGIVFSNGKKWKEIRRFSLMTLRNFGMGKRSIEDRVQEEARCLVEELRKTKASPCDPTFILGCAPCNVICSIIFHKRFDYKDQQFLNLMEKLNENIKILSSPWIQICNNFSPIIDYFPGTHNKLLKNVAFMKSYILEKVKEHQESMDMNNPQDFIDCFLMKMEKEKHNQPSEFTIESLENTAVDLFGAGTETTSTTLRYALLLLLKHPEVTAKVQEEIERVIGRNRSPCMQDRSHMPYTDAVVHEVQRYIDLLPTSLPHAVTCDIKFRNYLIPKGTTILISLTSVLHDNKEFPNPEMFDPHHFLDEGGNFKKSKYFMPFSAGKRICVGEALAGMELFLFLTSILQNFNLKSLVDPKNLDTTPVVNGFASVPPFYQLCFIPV

Usually inhibition stands for the drop in the measured response relative to a control, in per cent.

Structures are written as SMILES. The list shows a part of the results, in another mix than the full data. Active and inactive are the calls of the source.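 Rule for the calls: active = blocking of liver enzyme CYP2C9 beyond about 50% at 5 µM (limit read from the data); inactive = the rest.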

The target of this assay is Cytochrome P450 2C9 (Homo sapiens) (UniProt P11712). As to the kind of experiment: blockers of cytochrome P450 2C9 activity – biochemical, luminescence, ADME assay, primary screen (AID 777). The conditions noted are these: CYP2C9 Supersomes, luciferin-H conversion, at 5 µM, hits give high values.
`Cc1cc(C)cc(OP(C)(=O)Nc2ccc(C)cc2C)c1` (stereo not given): the inhibition was inactive: 36.6%. The result for `Cc1ccc(C)c(NP(C)(=O)Oc2ccccc2)c1` (stereo not given) reads inactive: -8.8%.

Consider `Cc1cc(C)cc(OP(C)(=O)Nc2ccccn2)c1` (stereo not given), for which the inhibition is inactive: 9%. The result for `Cc1nc2ccc3ccccc3c2s1.O=[N+]([O-])c1cc([N+](=O)[O-])c(O)c([N+](=O)[O-])c1` reads inactive: 14.6%; that for `CP(=O)(NC(=O)Nc1ccccc1)Oc1ccccc1` (stereo not given), inactive: -17.7%. To `CP(=O)(Nc1ccccn1)Oc1ccc(Cl)cc1` (stereo not given) belongs inactive: 1.3%. To `CCOP(C)(=S)SCC(=O)NC(C)C(=O)O` (stereo not given) belongs active: 54.7%. Regarding `CP(=S)(Nn1cnnc1)Oc1ccccc1` (stereo not given), the inhibition is inactive: 29.1%. The result for `COc1ccc(OP(C)(=O)Nc2cccc(F)c2)cc1` (stereo not given) reads active: 54.9%. The result for `Cc1ccc(NP(C)(=O)Oc2ccccc2)c(C)c1` (stereo not given) reads inactive: 28.1%; that for `COc1ccccc1OP(C)(=O)Nc1ccc(C)cc1` (stereo not given), inactive: 11.5%; that for `COc1ccc(OP(C)(=O)Nc2ccccn2)cc1` (stereo not given), inactive: 1.2%. To `CN(C)CCOC(=O)C(O)(c1ccccc1)C1CCCC1` (stereo not given) belongs inactive: 12.2%; to `COc1ccccc1OP(C)(=O)Nc1ccc(C)cc1C` (stereo not given), inactive: -3.7%; to `CP(=O)(Nc1ccccn1)Oc1ccccc1` (stereo not given), inactive: -6.8%. With `CCc1ccc(OP(C)(=O)O)cc1`, the inhibition was inactive: 1.7%. To `Cc1c(NP(C)(=O)Oc2ccc(C(C)C)cc2)c(=O)n(-c2ccccc2)n1C` (stereo not given) belongs inactive: 28%. The result for `COc1ccccc1OP(C)(=O)Nc1ccc(C)c(C)c1` (stereo not given) reads inactive: -8%; that for `Cc1nc2ccc3ccccc3c2o1.O=[N+]([O-])c1cc([N+](=O)[O-])c(O)c([N+](=O)[O-])c1`, inactive: 15.5%; that for `CP(=O)(OC12CC3CC(CC(C3)C1)C2)OC12CC3CC(CC(C3)C1)C2`, inactive: -6.5%. The result for `COc1ccccc1OP(C)(=O)Nc1c(C)n(C)n(-c2ccccc2)c1=O` (stereo not given) reads inactive: -1%; that for `CP(=O)(Oc1ccccc1)N1CCOC1=O` (stereo not given), inactive: -11.8%; that for `CCN(CC)CC(O)COC(=O)C(O)(c1ccccc1)C1CCCCC1` (stereo not given), inactive: 3.6%. `CC(C)(C)c1ccc(OP(C)(=O)O)cc1`: the inhibition was inactive: 0.2%. The result for `CCOP(C)(=S)SCC(=O)NC(C)(CC)C(=O)O` (stereo not given) reads inactive: 49.6%; that for `Cc1ccccc1NP(C)(=O)Nc1ccccc1C`, inactive: 23.3%; that for `CN(C)CCOC(=O)C(O)(c1ccccc1)C1CCCCC1` (stereo not given), inactive: 8.2%.

Consider `COc1ccc(OP(C)(=O)Nc2cccc(Br)c2)cc1` (stereo not given), for which the inhibition was inactive: 27.6%.

In the case of `CP(=O)(Nc1ccccc1)Oc1ccc(F)cc1` (stereo not given), the inhibition was inactive: -19%. In the case of `CP(=O)(Nc1ccccc1F)Oc1ccccc1` (stereo not given), the inhibition was inactive: 6.8%.
